Tested on: NIH3T3 cells expressing ROS1 fusions with G2032R
Experiment: Anchorage-independent colony formation assay
Assay type: cell-based
Conditions: at 100 nM

## C[C@@H](Oc1cc(-c2cnn(C3CCNCC3)c2)cnc1N)c1c(Cl)ccc(F)c1Cl [Crizotinib]
  inhibition of colony formation: weaker effects

Source: patent US20240398768A1, “METHODS OF TREATING SOLID TUMOR USING HETEROAROMATIC MACROCYCLIC ETHER COMPOUNDS” (Nuvalent, Inc., priority 2021, published 2024)
